Target: GFP-pdt#5 (Example 1) [GFP: P42212]

B1: mf-Lon fused to the E. coli ssrA tag variant ec-AAV (protein)
chain: MSKKIKLPIFQIRGSFIVPGIKENLEVGRKNTLASVNYAIKNSNNQMIAIPQIDASVEKPEFSDLHEFGILIDFEVIKEWKDNSLTISTNPIQRCKVISFFENEDQVPYAEVELIESINDFSDEELKELIEKISDAIKTKASLVTKQIKQLISGESDDLSLAFDSIMFKLAPSKILTNPEYITSPSLKTRWSIIEKIIFAEDGIITRNAESIDAARQKNEIEQELNHKLKEKMDKQQKEYYLREKMRIIKDELEDEDDSDDSSLEKYKERLAKEPFPEEVKRKIMASIKRVEALQSGTPEWNTEKNYIDWMMSIPWWEETEDLTDLKYAKKILDKHHYGMKKVKERIIEYLAVKTKTKSLKAPIITLVGPPGVGKTSLAKSIAEAVGKNFVKVSLGGVKDESEIRGHRKTYVGSMPGRIIQTMKRAKVKNPLFLLDEIDKMASDHRGDPASAMLEVLDPEQNKEFSDHYIEEPYDLSQVMFIATANYPEDIPEALYDRMEIINLSSYTEIEKVKIAQDYLVPKAIEQHELTSEEISFTEGAINEIIKYYTREAGVRQLERHINSIIRKYIVKNLNGEMDKIVIDEKQVNDLLGKRIFDHTEKQEESQIGVVTGLAYTQFGGDILPIEVSLYPGKGNLILTGKLGEVMKESATIALTYVKSNFEKFGVDKKVFEENDIHVHVPEGAVPKDGPSAGITITTALISALSDKPVSKEIGMTGEITLRGNVLPIGGLREKSISASRSGLKTIIIPKKNERDLDEIPDEVKAKLKIIPAEKYEEVFAIVFKTK
- GFP-pdt#5 remaining at maximal mf-Lon expression: degrade GFP-pdt#5 to 38% of its initial levels at maximal expression

B2: mf-Lon fused to the E. coli ssrA tag variant ec-ASV (protein)
chain: MSKKIKLPIFQIRGSFIVPGIKENLEVGRKNTLASVNYAIKNSNNQMIAIPQIDASVEKPEFSDLHEFGILIDFEVIKEWKDNSLTISTNPIQRCKVISFFENEDQVPYAEVELIESINDFSDEELKELIEKISDAIKTKASLVTKQIKQLISGESDDLSLAFDSIMFKLAPSKILTNPEYITSPSLKTRWSIIEKIIFAEDGIITRNAESIDAARQKNEIEQELNHKLKEKMDKQQKEYYLREKMRIIKDELEDEDDSDDSSLEKYKERLAKEPFPEEVKRKIMASIKRVEALQSGTPEWNTEKNYIDWMMSIPWWEETEDLTDLKYAKKILDKHHYGMKKVKERIIEYLAVKTKTKSLKAPIITLVGPPGVGKTSLAKSIAEAVGKNFVKVSLGGVKDESEIRGHRKTYVGSMPGRIIQTMKRAKVKNPLFLLDEIDKMASDHRGDPASAMLEVLDPEQNKEFSDHYIEEPYDLSQVMFIATANYPEDIPEALYDRMEIINLSSYTEIEKVKIAQDYLVPKAIEQHELTSEEISFTEGAINEIIKYYTREAGVRQLERHINSIIRKYIVKNLNGEMDKIVIDEKQVNDLLGKRIFDHTEKQEESQIGVVTGLAYTQFGGDILPIEVSLYPGKGNLILTGKLGEVMKESATIALTYVKSNFEKFGVDKKVFEENDIHVHVPEGAVPKDGPSAGITITTALISALSDKPVSKEIGMTGEITLRGNVLPIGGLREKSISASRSGLKTIIIPKKNERDLDEIPDEVKAKLKIIPAEKYEEVFAIVFKTK
- GFP-pdt#3 (Example 2 name) degradation across ATc levels: the weaker ec-ASV variant had only a small effect on mf-Lon protein levels
- aTc concentration needed for maximal GFP-pdt#5 degradation: reduced aTc concentration required to induce maximal GFP-pdt#5 degradation
